{"source": "patent US20070135407A1", "about": "“Serm reduction of lipid profiles” (priority 2005, published 2007)", "test_system": "men with histologically documented prostate cancer receiving ADT", "data": [{"smiles": "CN(C)CCOc1ccc(/C(=C(/CCCl)c2ccccc2)c2ccccc2)cc1", "note": "[Toremifene, toremifene]", "values": [{"measurement": "magnitude of lipid changes elicited by toremifene treatment", "setting": "patients not concomitantly taking statins vs patients taking statins", "value": "greater in patients who were not concomitantly taking statins"}, {"measurement": "all serum lipid parameters measured (overall result)", "setting": "patients treated with toremifene 80 mg/day, month 12", "value": "statistically significant improvement"}, {"measurement": "total circulating cholesterol levels (change)", "setting": "toremifene 80 mg/day, baseline to month 12, compared to placebo, interim analysis of first 197 subjects, p=0.001", "value": "−7.1", "unit": "%"}, {"measurement": "LDL levels (change)", "setting": "toremifene 80 mg/day, baseline to month 12, compared to placebo, interim analysis of first 197 subjects, p=0.003", "value": "−9.0", "unit": "%"}, {"measurement": "triglyceride levels (change)", "setting": "toremifene 80 mg/day, baseline to month 12, compared to placebo, interim analysis of first 197 subjects, p=0.009", "value": "−20.1", "unit": "%"}, {"measurement": "HDL levels (change)", "setting": "toremifene 80 mg/day, baseline to month 12, compared to placebo, interim analysis of first 197 subjects, p=0.018", "value": "+5.4%"}]}]}
